Assay: Solute release from bonded HPC gel membranes (modified HPLC system)
Assay type: physicochemical
Procedure: Solute release tests were conducted in the same manner as for PNIPA gels, as described in Example 1. The solute release experiments were designed to model the actual conditions of catheter use, which entail therapeutic solute loading at room temperature (25° C.), insertion of the catheter into the patient at 37° C., and temperature induced enhanced solute release when the catheter is placed at a target location in the body. While the experimental design was generally successful in modeling the actual use of catheter, heat lost to the experimental apparatus tubing reduced the 37° C. test temperature to 33° C. Because the transition temperature of HPC is fairly sharp (in this case, 43° C.), the reduction of test temperature from 37° C. to 33° C. had little impact on the test results.
Solute release experiments were conducted under four constant temperature conditions and three step change conditions. […] Thus, test temperatures below and above the transition temperature of HPC (43° C.) were used. […]

solute released in the five minutes following the trigger (24° C. to 46° C. trigger): 37% | solute released in the five minutes following the trigger (24° C. to 53° C. trigger): 65%
Substance: FITC-dextran [reference compound]

— patent US7407671B2, “Temperature controlled solute delivery system” (Boston Scientific Scimed, Inc., priority 1998, dated 2008)
